According to US20240124398A1, “PHARMACEUTICALLY ACCEPTABLE SALTS OF PSILOCIN AND USES THEREOF” (priority 2021, published 2024):
Values joined by “and” are separate entries in the source; they are usually repeats but may differ in a detail not shown here. Identical values can stand only once.

Key:
[1] = Solubility of psilocin salts in saline
[2] = Static storage for 7 days at 40° C./75% RH (XRPD and HPLC); conditions: for Static Storage 40° C./75% RH: HPLC: HPLC purity after 7 days at 40° C. and 75% relative humidity; for Static Storage 40° C./75% RH: XRPD: XRPD pattern after 7 days at 40° C. and 75% relative humidity

Substance | Static Storage 40° C./75% RH: HPLC [2] | Static Storage 40° C./75% RH: XRPD [2] | other results
Psilocin tartrate | – | – | pH at 5 hrs ([1]; Table 10 (updated), saline): 3.5
Psilocin succinate [Psilocin succinate SUC Pattern 2] | HPLC- 98.8% | SUC Pattern 3 | –
Psilocin succinate [Psilocin succinate SUC Pattern 1] | HPLC - 99.3% | SUC Pattern 3 | –
Psilocin succinate [SUC Pattern 3] | – | – | pH at 5 hrs ([1]; Table 9, saturated solution in saline, 25° C., 5 hours, listed as Psilocin succinate SUC Pattern 3): 6.5 and 6.4; pH at 5 hrs ([1]; Table 10 (updated), saline, listed as Psilocin succinate SUC Pattern 3): 6.4 and 6.5; Solubility in Saline ([1]; summary Table 4, saline, 25° C., 5 hours): >27 mg/mL
Psilocin succinate [Psilocin succinate SUC Pattern 4] | HPLC - 99.4% | XRPD - SUC Pattern 5 (FIG. 5) | –
